Some of these compounds have results that are not shown, active ones among them.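 Cultured in 96-well plates, cells were exposed to test compound for 48 hours across five concentrations. The concentration for 50% growth inhibition is given as GI50. TGI denotes the concentration required for complete inhibition of growth.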
Tests used:
Test in all cases: inhibition of tumour cell growth, NCI panel, 48 h
DU-145 prostate = test system: DU-145 prostate
786-0 renal = test system: 786-0 renal
U251 CNS = test system: U251 CNS
NCI-H460 lung = test system: NCI-H460 lung
HT29 colon = test system: HT29 colon
SK-MEL-2 melanoma = test system: SK-MEL-2 melanoma
SK-MEL-5 melanoma = test system: SK-MEL-5 melanoma
RXF 393 renal = test system: RXF 393 renal
MDA-N = test system: MDA-N
MOLT-4 leukemia = test system: MOLT-4 leukemia
UACC-257 melanoma = test system: UACC-257 melanoma
NCI/ADR-RES ovarian = test system: NCI/ADR-RES ovarian
A498 renal = test system: A498 renal
HOP-62 NSCLC = test system: HOP-62 NSCLC
OVCAR-4 ovarian = test system: OVCAR-4 ovarian
SF-539 CNS = test system: SF-539 CNS
HCT-15 colon = test system: HCT-15 colon
SNB-19 CNS = test system: SNB-19 CNS
PC-3 prostate = test system: PC-3 prostate
BT-549 breast = test system: BT-549 breast
UO-31 renal = test system: UO-31 renal
SK-OV-3 ovarian = test system: SK-OV-3 ovarian
MCF7 breast = test system: MCF7 breast
UACC-62 melanoma = test system: UACC-62 melanoma
A549 NSCLC = test system: A549 NSCLC
SR leukemia = test system: SR leukemia
SF-295 CNS = test system: SF-295 CNS
TK-10 renal = test system: TK-10 renal
CCRF-CEM leukemia = test system: CCRF-CEM leukemia

Compound: CCCC#CC(O)(C(=O)OC1CN2CCC1CC2)C1CCCC1 (configuration not stated)
- TGI (DU-145 prostate): > 100 µM
- GI50 (786-0 renal): > 100 µM
- TGI (786-0 renal): > 100 µM
- GI50 (U251 CNS): > 100 µM
- TGI (U251 CNS): > 100 µM
- GI50 (NCI-H460 lung): > 100 µM
- TGI (NCI-H460 lung): > 100 µM
- GI50 (HT29 colon): > 100 µM
- TGI (HT29 colon): > 100 µM
- GI50 (SK-MEL-2 melanoma): > 100 µM
- TGI (SK-MEL-2 melanoma): > 100 µM
- GI50 (SK-MEL-5 melanoma): > 100 µM
- TGI (SK-MEL-5 melanoma): > 100 µM
- GI50 (RXF 393 renal): > 100 µM
- TGI (RXF 393 renal): > 100 µM
- GI50 (MDA-N): > 100 µM
- TGI (MDA-N): > 100 µM
- GI50 (MOLT-4 leukemia): > 100 µM
- TGI (MOLT-4 leukemia): > 100 µM
- GI50 (UACC-257 melanoma): > 100 µM
- TGI (UACC-257 melanoma): > 100 µM
- GI50 (NCI/ADR-RES ovarian): > 100 µM
- TGI (NCI/ADR-RES ovarian): > 100 µM
- GI50 (A498 renal): > 100 µM
- TGI (A498 renal): > 100 µM
- GI50 (HOP-62 NSCLC): > 100 µM
- TGI (HOP-62 NSCLC): > 100 µM
- GI50 (OVCAR-4 ovarian): > 100 µM
- TGI (OVCAR-4 ovarian): > 100 µM
- GI50 (SF-539 CNS): > 100 µM
- TGI (SF-539 CNS): > 100 µM
- GI50 (HCT-15 colon): > 100 µM
- TGI (HCT-15 colon): > 100 µM
- GI50 (SNB-19 CNS): > 100 µM
- TGI (SNB-19 CNS): > 100 µM
- GI50 (PC-3 prostate): > 100 µM
- TGI (PC-3 prostate): > 100 µM
- GI50 (BT-549 breast): > 100 µM
- TGI (BT-549 breast): > 100 µM
- GI50 (UO-31 renal): > 100 µM
- TGI (UO-31 renal): > 100 µM
- GI50 (SK-OV-3 ovarian): > 100 µM
- TGI (SK-OV-3 ovarian): > 100 µM
- GI50 (MCF7 breast): > 100 µM
- TGI (MCF7 breast): > 100 µM
- GI50 (UACC-62 melanoma): > 100 µM
- TGI (UACC-62 melanoma): > 100 µM
- GI50 (A549 NSCLC): > 100 µM
- TGI (A549 NSCLC): > 100 µM
- GI50 (SR leukemia): > 100 µM
- TGI (SR leukemia): > 100 µM
- GI50 (SF-295 CNS): > 100 µM
- TGI (SF-295 CNS): > 100 µM
- GI50 (TK-10 renal): > 100 µM
- TGI (TK-10 renal): > 100 µM
- GI50 (CCRF-CEM leukemia): > 100 µM
- TGI (CCRF-CEM leukemia): > 100 µM

— PubChem BioAssay (NCI)
